In ChEMBL document CHEMBL5728058, “3-(carboxymethyl)-8-amino-2-oxo-1,3-diaza-spiro-[4.5]-decane derivatives” (2020):

target: Mu-type opioid receptor (Homo sapiens, UniProt P35372); assay: Human Mu-Opioid Peptide (hMOP) Receptor Binding Assay: The hMOP receptor binding assay was performed as homogeneous SPA-assay (scintillation proximity assay) using the assay buffer 50 mM TRIS-HCl (pH 7.4) supplemented with 0.052 mg/ml bovine serum albumin (Sigma-Aldrich Co., St. Louis, Mo.). The final assay volume (250 μl/well) included 1 nM of [N-allyl-2,3-3H]naloxone as ligand (PerkinElmer Life

Compound	Ki
CN(C)[C@]1(c2ccccc2)CC[C@]2(CC1)CN(CC(=O)N1C[C@@H](O)[C@@H](O)C1)C(=O)N2CC1CCC1	40.5 nM
CN(C)[C@]1(c2ccccc2)CC[C@]2(CC1)CN(CC(=O)Nc1ccncn1)C(=O)N2CC1CCC1	36.5 nM
CN(C)[C@]1(c2ccccc2)CC[C@]2(CC1)CN(CC(=O)NCCO)C(=O)N2CC1CCC1	47 nM
COc1ccc(NC(=O)CN2C[C@]3(CC[C@](c4ccccc4)(N(C)C)CC3)N(CC3CCC3)C2=O)nc1	36.5 nM
CN(C)[C@]1(c2ccccc2)CC[C@]2(CC1)CN(CC(=O)Nc1ccc(S(C)(=O)=O)cn1)C(=O)N2CC1CCC1	40 nM
CNC(=O)CN1C[C@]2(CC[C@](c3ccccc3)(N(C)C)CC2)N(CC2CCC2)C1=O	24.8 nM
